# Source: ChEMBL document CHEMBL2440015, “Reversible inhibition of human acetylcholinesterase by methoxypyridinium species” (2013)
# Amino acid sequences for entries named in this document (tags omitted). Residues count along the entry.
# UniProt P22303, 32-614 limits assumed: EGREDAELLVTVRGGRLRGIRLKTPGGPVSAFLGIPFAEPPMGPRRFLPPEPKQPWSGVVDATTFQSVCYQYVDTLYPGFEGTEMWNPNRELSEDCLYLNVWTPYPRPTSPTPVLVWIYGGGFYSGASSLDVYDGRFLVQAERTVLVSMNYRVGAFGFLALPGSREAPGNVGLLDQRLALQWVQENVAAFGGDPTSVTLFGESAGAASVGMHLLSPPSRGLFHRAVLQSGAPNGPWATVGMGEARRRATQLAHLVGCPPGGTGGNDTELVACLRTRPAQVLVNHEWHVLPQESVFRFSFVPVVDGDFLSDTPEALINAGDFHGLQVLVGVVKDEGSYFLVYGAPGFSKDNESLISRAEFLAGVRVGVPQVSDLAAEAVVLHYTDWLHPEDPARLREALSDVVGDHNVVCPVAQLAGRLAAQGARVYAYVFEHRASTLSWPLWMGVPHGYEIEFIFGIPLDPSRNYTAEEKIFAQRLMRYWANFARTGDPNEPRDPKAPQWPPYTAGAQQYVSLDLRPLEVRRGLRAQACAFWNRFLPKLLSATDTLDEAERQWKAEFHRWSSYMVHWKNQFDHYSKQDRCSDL
# Key:
# Acetylcholinesterase [1] = molecular target: T1, Acetylcholinesterase (Homo sapiens, UniProt P22303); test: Reversible inhibition of human recombinant AChE using acetylthiocholine iodide as substrate measured after 2 hrs by Ellmans method
# Acetylcholinesterase [2] = molecular target: T1, Acetylcholinesterase; test: Reversible inhibition of human recombinant AChE using acetylthiocholine iodide as substrate measured at initial time point by Ellmans method
Structure (SMILES),IC50 (Acetylcholinesterase [1]) [nM],IC50 (Acetylcholinesterase [2]) [nM]
COc1cccc[n+]1C,46000,37000
COc1cc2c(cc1OC)C(=O)C(CCCCCCCc1cccc(OC)[n+]1C)C2 (configuration not stated),270,190
COc1cc2c(cc1OC)C(=O)C(CCCCCCc1cccc(OC)[n+]1C)C2 (configuration not stated),100,70
COc1c(F)c[n+](CCCOc2ccc3c(C)cc(=O)oc3c2)cc1F,1900,1700
COc1cc2c(cc1OC)C[N+](C)(CCCCc1cccc(OC)[n+]1C)CC2 (configuration not stated),5500,5200
COc1ccc(C#N)c[n+]1C,64000,43000
COc1c(F)ccc[n+]1C,–,70000
COc1cccc(C#N)[n+]1C,18000,14000
COc1cc2c(cc1OC)C(=O)C(CCCCCc1cccc(OC)[n+]1C)C2 (configuration not stated),130,120
COc1c(F)c[n+](C)cc1F,98000,54000
COc1ccc(C(F)(F)F)c[n+]1CCC[n+]1cc(C(F)(F)F)ccc1OC,3600,10500
COc1cc2c(cc1OC)C[N+](C)(CCCCCCCc1cccc(OC)[n+]1C)CC2 (configuration not stated),110,49
COc1cccc(CCCCCCc2cccc(OC)[n+]2C)[n+]1C,70,70
COc1ccc(C(F)(F)F)c[n+]1CCCCCOc1ccc2c(C)cc(=O)oc2c1,1030,720
COc1c(F)c[n+](CCCCOc2ccc3c(C)cc(=O)oc3c2)cc1F,530,690
COc1ccc(C(F)(F)F)c[n+]1CCCCC[n+]1cc(C(F)(F)F)ccc1OC,22000,22000

Structure (SMILES),IC50 (Acetylcholinesterase [1]) [nM],IC50 (Acetylcholinesterase [2]) [nM]
COc1cc2c(cc1OC)C[N+](C)(CCCCCc1cccc(OC)[n+]1C)CC2 (configuration not stated),460,500
COc1ccc(C(F)(F)F)c[n+]1CCCCOc1ccc2c(C)cc(=O)oc2c1,1110,760
COc1cccc(CCCCCCCCc2cccc(OC)[n+]2C)[n+]1C,190,180
COc1ccc(F)c[n+]1C,17000,16000
COc1c(F)c[n+](CCC[n+]2cc(F)c(OC)c(F)c2)cc1F,28000,21000
COc1cc(C#N)cc[n+]1C,61000,51000
COc1cccc(CCCCCc2cccc(OC)[n+]2C)[n+]1C,110,100
COc1c(F)c[n+](CCCCCOc2ccc3c(C)cc(=O)oc3c2)cc1F,470,480
COc1cccc(CCCCCCCc2cccc(OC)[n+]2C)[n+]1C,120,120
COc1ccc([N+](=O)[O-])c[n+]1C,35000,7500
COc1cccc(CCc2cccc(OC)[n+]2C)[n+]1C,1100,810
COc1cccc(C(F)(F)F)[n+]1C,46000,36000
COc1ccc(C(F)(F)F)c[n+]1CCCCCO,–,98000
COc1cc2c(cc1OC)C[N+](C)(CCCCCCc1cccc(OC)[n+]1C)CC2 (configuration not stated),190,150
COc1ccc(C(F)(F)F)c[n+]1C,31000,23000
COc1ccc(C(F)(F)F)c[n+]1CCCOc1ccc2c(C)cc(=O)oc2c1,3600,3600
